Species on record: Homo sapiens
Assay: Selectivity ratio of Ki for human mu opioid receptor to Ki for human nociceptin opioid receptor

In the case of `O=C1NCN(c2ccccc2)C12CCN([C@@H]1CC[C@H]3CCCc4cccc1c43)CC2`, the Ratio Ki is reported as 100.
